System: HEK-OX1R cells
Test: Inhibition of HEK-OX1R cell growth (cell counting)
Type: cell-based
Conditions: 0.1 μM, 48 h; untreated cells = 0% inhibition

Substance	Inhibition of cell growth, % [%]
Cetux « clicked »	52
Cetuximab [reference compound]	30

From patent US20210188983A1, “POLYPEPTIDES FOR PREPARING DRUG CONJUGATES CAPABLE OF PROMOTING APOPTOSIS IN A CELL EXPRESSING AN OREXIN RECEPTOR” (UNIVERSITE DE MONTPELLIER, priority 2016, published 2021)
